Biological target: Axl (Homo sapiens, UniProt P30530)
Assay: Phospho-Akt in-cell Western assay (inhibition of Axl activity)
Type: cell-based
Settings: Hela cells; 1 hr pre-treatment; stimulation by Axl-antibody cross-linking; phospho-Akt chemiluminescence normalized to relative cell number
Description: The compounds of the invention were tested in the following assay for their ability to inhibit Axl activity.
Phospho-Akt in-Cell Western Assay […]

The chains behind the UniProt entries cited, without tags or fusion partners. Residues count along the entry.
UniProt P30530, 26-894 limits assumed: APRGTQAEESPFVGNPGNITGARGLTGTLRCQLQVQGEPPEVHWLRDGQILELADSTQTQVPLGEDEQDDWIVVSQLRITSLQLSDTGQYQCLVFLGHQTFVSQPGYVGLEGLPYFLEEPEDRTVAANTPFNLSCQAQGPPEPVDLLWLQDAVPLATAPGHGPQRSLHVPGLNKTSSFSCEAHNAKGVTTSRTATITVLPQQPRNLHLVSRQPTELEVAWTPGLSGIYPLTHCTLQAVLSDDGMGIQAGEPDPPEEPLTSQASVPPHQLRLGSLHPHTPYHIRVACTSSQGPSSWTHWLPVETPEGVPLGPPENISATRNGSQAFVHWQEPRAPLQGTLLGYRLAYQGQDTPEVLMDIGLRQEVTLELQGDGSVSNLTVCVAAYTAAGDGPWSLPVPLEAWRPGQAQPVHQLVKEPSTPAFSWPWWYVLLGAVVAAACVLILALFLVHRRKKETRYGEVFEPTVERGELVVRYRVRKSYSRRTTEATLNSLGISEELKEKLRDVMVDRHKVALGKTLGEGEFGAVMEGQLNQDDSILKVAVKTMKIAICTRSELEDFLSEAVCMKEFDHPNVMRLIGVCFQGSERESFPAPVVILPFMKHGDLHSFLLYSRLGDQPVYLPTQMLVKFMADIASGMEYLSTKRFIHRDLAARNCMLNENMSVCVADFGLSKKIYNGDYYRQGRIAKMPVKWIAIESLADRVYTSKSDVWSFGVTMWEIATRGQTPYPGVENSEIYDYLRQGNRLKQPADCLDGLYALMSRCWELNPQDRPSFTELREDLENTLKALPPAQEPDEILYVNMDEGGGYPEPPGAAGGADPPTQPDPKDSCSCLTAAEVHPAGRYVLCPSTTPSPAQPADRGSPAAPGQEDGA

In the case of `CN1CCN(c2ccc(Nc3nc(N)n(-c4cc5c(nn4)CCCCCC5)n3)cc2)CC1`, the IC50 is reported as < 1 µM.

Source: patent publication US8809347B2, “Bicyclic aryl and bicyclic heteroaryl substituted triazoles useful as AXL inhibitors” (Rigel Pharmaceuticals, Inc., priority 2006, dated 2014)
